Source: article PMC9097471, “Development of Selective Phosphatidylinositol 5-Phosphate 4-Kinase γ Inhibitors with a Non-ATP-competitive, Allosteric Binding Mode” (Journal of Medicinal Chemistry, 2022)

Key:
PI5P4Kβ-WT = target: T1, PI5P4Kβ-WT (Homo sapiens, UniProt P78356); assay: ADP-Glo inhibition assay
T1 sequence (P78356 1-416): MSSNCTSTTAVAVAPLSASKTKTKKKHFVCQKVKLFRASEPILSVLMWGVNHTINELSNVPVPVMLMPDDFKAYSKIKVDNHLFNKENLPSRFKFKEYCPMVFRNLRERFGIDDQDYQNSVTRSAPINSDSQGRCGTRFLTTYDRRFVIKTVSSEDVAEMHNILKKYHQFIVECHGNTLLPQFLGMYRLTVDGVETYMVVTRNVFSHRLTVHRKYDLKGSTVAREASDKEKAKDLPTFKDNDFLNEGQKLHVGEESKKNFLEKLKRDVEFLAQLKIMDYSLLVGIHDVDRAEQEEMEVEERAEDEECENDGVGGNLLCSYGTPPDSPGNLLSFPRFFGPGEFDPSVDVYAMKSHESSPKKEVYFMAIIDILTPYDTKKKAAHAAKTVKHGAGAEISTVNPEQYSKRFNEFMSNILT

PI5P4Kα-WT = target: T2, PI5P4Kα-WT (Homo sapiens, UniProt P48426); assay: ADP-Glo inhibition assay
T2 sequence (P48426 1-406): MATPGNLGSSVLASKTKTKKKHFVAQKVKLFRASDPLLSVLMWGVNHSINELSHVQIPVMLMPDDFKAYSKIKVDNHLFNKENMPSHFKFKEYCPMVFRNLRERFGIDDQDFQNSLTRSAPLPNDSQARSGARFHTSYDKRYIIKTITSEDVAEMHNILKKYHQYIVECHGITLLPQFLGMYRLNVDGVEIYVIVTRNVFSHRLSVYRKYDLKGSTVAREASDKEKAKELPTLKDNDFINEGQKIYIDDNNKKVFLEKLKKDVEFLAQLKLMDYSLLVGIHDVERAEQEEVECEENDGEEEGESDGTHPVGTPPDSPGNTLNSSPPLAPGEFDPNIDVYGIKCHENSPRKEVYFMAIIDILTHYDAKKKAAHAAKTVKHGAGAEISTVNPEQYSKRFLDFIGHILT

CN(C)C/C=C/C(=O)Nc1ccc(C(=O)Nc2cccc(Nc3cc(-c4c[nH]c5ccccc45)ncn3)c2)cc1 [Compound 3, THZ-P1-2, reference compound]
IC50 (PI5P4Kβ-WT): 1000 nM
IC50 (PI5P4Kα-WT): 130 nM
